Results published in article PMC2582240, “Enhanced A3 adenosine receptor selectivity of multivalent nucleoside-dendrimer conjugates” (Journal of Nanobiotechnology, 2008).

Chains of the proteins cited; added tags and fusions are not shown.
UniProt P30542, whole entry: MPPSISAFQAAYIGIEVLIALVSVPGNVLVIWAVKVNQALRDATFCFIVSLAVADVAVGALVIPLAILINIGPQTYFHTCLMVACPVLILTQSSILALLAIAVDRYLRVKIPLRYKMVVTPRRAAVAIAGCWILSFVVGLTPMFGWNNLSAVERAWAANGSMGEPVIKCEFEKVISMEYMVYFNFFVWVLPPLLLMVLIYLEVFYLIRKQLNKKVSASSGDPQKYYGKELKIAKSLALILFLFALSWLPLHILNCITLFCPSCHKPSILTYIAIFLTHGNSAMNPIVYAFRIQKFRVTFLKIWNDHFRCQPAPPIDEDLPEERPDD

Biological target: A1 AR (Homo sapiens, UniProt P30542)
Assay: [35S]GTPγS binding assay in CHO A1 membranes
Format: biochemical
Details: increasing concentrations of DPCPX incubated with 17, CHO A1 membranes
Experimental: CHO (Chinese hamster ovary) cells stably expressing the recombinant human ARs were cultured in Dulbecco's modified Eagle medium (DMEM) and F12 (1:1) supplemented with 10% fetal bovine serum, 100 units/mL penicillin, 100 μg/mL streptomycin, and 2 μmol/mL glutamine. After harvesting, cells were homogenized and suspended. Cells were then centrifuged at 500 g for 10 min, and the pellet was resuspended in 50 mM Tris-HCl buffer (pH 7.5) containing 10 mM MgCl2. The suspension was homogenized and was then recentrifuged at 20 000 g for 20 min at 4°C. […] The protein concentration was measured using the BCA Protein Assay Kit from Pierce.
[^35S]GTPγS binding was measured in 200 μl of buffer containing 50 mM Tris-HCl (pH 7.4), 1 mM EDTA, 1 mM MgCl2, 10 μM GDP, 1 mM dithiothreitol, 100 mM NaCl, 3 units/ml adenosine deaminase, 0.2 nM [^35S]GTPγS, 0.004% CHAPS, 0.5% bovine serum albumin and increasing concentrations of the ligands. […] Non-specific binding of [^35S]GTPγS was measured in the presence of 10 μM unlabelled GTPγS. After the filters were washed, they were placed in scintillation vials containing 5 mL of Hydrofluor scintillation buffer and counted using a Perkin Elmer Liquid Scintillation Analyzer. The EC50 values were determined using GraphPad Prism for all assays.

With `CCCn1c(=O)c2[nH]c(C3CCCC3)nc2n(CCC)c1=O` [DPCPX, reference compound] the “Antagonism of [35S]GTPγS binding induced by compound 17” value was “fully inhibit”.
